Results on one substance are retold here after patent US20140187771A1, “AMORPHOUS SOLID SALTS” (Gilead Sciences, Inc., priority 2011, published 2014).

This data set can be described thus: Hygroscopicity at room temperature (weight gain and visual phase transition after 24 hours at controlled RH). In kind it is physicochemical. Conditions: 55% RH. As to the method:
Hygroscopicity of salts of invention were measured by placing 20-50 mg of the sample in an uncapped scintillation vial. The vial was stored at ambient temperature in a Pyrex brand desiccator (VWR, International, CT). […] The relative humidity was confirmed using a digital hygrometer pen (VWR International, CT). An empty scintillation vial was also placed in the desiccator as a control. […] Visual observation of phase transition was also noted.

In the case of nicotinate, the “% weight gain” value came out at 2.07%.
